# Literature values as cited in US11311631B2, “Paclitaxel-albumin-binding agent compositions and methods for using and making the same” (Mayo Foundation for Medical Education and Research, priority 2016, dated 2022).
# Tested on: cells, including cancer cells and normal cells
# Settings: attributed to breaking of the C-4,C-5 oxetane ring; no test described by the applicant; cited from earlier work
substance,measurement,value
"20-Acetoxy-4-deactyl-5-epi-20, O-secotaxol [Meerwein Product of Paclitaxel]",toxicity compared to paclitaxel,significantly reduced toxicity
